# High-throughput results: PubChem, National Center for Advancing Translational Sciences (NCATS)
# PI4K2A inh: PI4K2A (human) kinase inhibition; Q9BTU6; purified PI4K2A, ADP-Glo luminescence, 1 h; active compounds read low; activity change, negative = inhibition, % at 76.9 µM; 420,000 compounds, 0.13% hits; AID 1346378; in the data active means activity change below about -50%; inconclusive means mostly about -30% to -49%;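 further: -100% = wells without enzyme as full effect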
#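 ADP-Glo luminescence measured ADP generated by PI4K2A enzyme (4 ug/mL before mixing) with 1.2 mM PI substrate (pre-mix) and 300 microM ATP (pre-mix). Tris pH7.5 buffer with MgCl2, Triton X-100; 1 h reaction at ambient temperature.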
# A549 tox-1: kills or reduces viability of A549 cells in Nrf2 counter-screen; AID 504648; A549 ARE-Fluc cells, CellTiter-Fluor viability, 18-24 h; 390,000 compounds, 0.16% hits; Potency, µM (highest dose often 46 µM), inactives show at the highest dose activity change, negative = cytotoxicity, most hits filed as inhibitors; further: potency means the concentration at half of the fitted maximal effect; on the % scale 0 is the no-effect control and ±100 the full control effect
#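 A549 ARE-Fluc cells in 5% FBS OPTI-MEM, 5000 cells/well, rested 2 h then exposed to compounds in concentration-response for 18-24 h at 37 °C. Viability by CellTiter-Fluor fluorescence (Ex 405/Em 525) after 30 min; luciferase luminescence (BugLite, 15 min, RT) read afterwards.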
# miR-21 reporter: miR-21 reporter, rising signal. 340,000 tested, under 10 active. Potency, µM (highest dose often 38.3 µM), for the others: at the highest dose reporter change, positive = more light. HeLa miR-21 FLuc reporter, luciferase, 48 h. AID 2288; active = well fitted rising curve with a large enough effect; inconclusive = small, poorly fitted or top-dose-only effect; inactive = no such curve, though single readings can be large or run the other way;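 further: % of control where 0% means no effect; miR-21 action dims this reporter so a rising signal means less miR-21 action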
#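 HeLa cells stably expressing CMV-driven firefly luciferase with a downstream miR-21 binding sequence, endogenously expressing miR-21, were treated with titrations (up to about 40uM final) for 48 hours at 37 degree Celsius. Luciferase luminescence was read after lysis.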
# GALK inhibitor: blocks human galactokinase activity; Purified GALK, Kinase-Glo residual ATP luminescence; Potency, µM (titrated, usually from 57.5 µM), without a hit: at the highest dose activity change, negative = inhibition, usual class: inhibitors; 270,000 compounds, 0.007% hits; AID 1868; further: potency means the concentration at half of the fitted maximal effect; on the % scale 0 is the no-effect control and ±100 the full control effect
#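 GALK at 5 nM final was combined with compound, 35 uM ATP and 100 uM galactose in HEPES pH8.0 with MgCl2 and DTT. The reaction ran one hour at room temperature before luminescent ATP detection.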
# Nrf2 activator: Nrf2 pathway activation. AREc32 ARE-luciferase reporter (MCF7-derived line), luminescence, 24 h. Potency, µM (series often up to 46.1 µM), for inactives: top-dose activation, most hits filed as activators. 410,000 compounds, 0.31% hits; further: potency means the concentration at half of the fitted maximal effect; % of control where 0% means no effect; nearly all actives have a fitted effect of over 65% in size
#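 Luciferase luminescence (Steady-Glo, 30 min at room temperature) served as the read-out of ARE activation in AREc32 cells treated with compounds for 24 hr at 37 deg C.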
# Nrf2 block: Nrf2 pathway inhibition. A549 ARE-Fluc reporter, luciferase luminescence, 18-24 h. Potency, µM (series often up to 46 µM), for the others: at the highest dose activity change, negative = inhibition, most hits filed as inhibitors. 360,000 compounds, 2.1% hits. AID 504444; further: potency means the concentration at half of the fitted maximal effect; on the % scale 0 is the no-effect control and ±100 the full control effect; nearly all actives have a fitted effect of over 60% in size
#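 Two sequential reads on A549 ARE_Fluc cells exposed to compound for 18-24 h: a CellTiter-Fluor fluorescence read for viability, then a luciferase luminescence read for Nrf2/ARE activity.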
# FLuc counter 3: blocks purified firefly luciferase in Nrf2 counterscreen | 1,400 compounds, 4% hits | purified firefly luciferase, luminescence inhibition | shares compounds with Nrf2 block | Potency, µM (top dose mostly 57.5 µM), for inactives: at the highest dose activity change, negative = inhibition, hits mostly inhibitors; further: potency means the concentration at half of the fitted maximal effect; on the % scale 0 is the no-effect control and ±100 the full control effect; nearly all actives have a fitted effect of over 65% in size
# A549 tox-2: A549 cytotoxicity, Nrf2 inhibitor counterscreen. shares compounds with Nrf2 block. A549 ARE-Fluc cells, cytotoxicity counterscreen. Potency, µM (top dose mostly 46.1 µM), without a hit: at the highest dose activity change, negative = cytotoxicity, actives largely listed as inhibitors. 1,400 compounds, 2% hits. AID 720523;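 further: potency means the concentration at half of the fitted maximal effect; cells exposed to compounds for 18 to 24 hours; on the % scale 0 is the no-effect control and ±100 the full control effect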
# Nrf2 ARE inh: Nrf2 inhibition confirmed, A549 ARE-luciferase; shares compounds with Nrf2 block; A549 ARE-firefly luciferase reporter, luminescence; Potency, µM (top dose mostly 46.1 µM), without a hit: at the top dose activity change, negative = inhibition, most hits filed as inhibitors; 1,400 compounds, 74% hits; AID 720524; further: potency means the concentration at half of the fitted maximal effect; on the % scale 0 is the no-effect control and ±100 the full control effect; nearly all actives have a fitted effect of over 65% in size
# Active calls of the source: *; ? = inconclusive; nt = no result. Hits are enriched below; roughly 2.2% of the tested compounds scored in any of these assays. Unless noted, the call rests on the fitted dose curve; in most records, active means well fitted curve in the direction sought with a large enough effect; inconclusive means small, poorly fitted or top-dose-only effect, or another doubt; inactive means no such curve, though single readings can be large; an effect the other way counts as inactive or inconclusive.
SMILES,PI4K2A inh,A549 tox-1,miR-21 reporter,GALK inhibitor,Nrf2 activator,Nrf2 block,FLuc counter 3,A549 tox-2,Nrf2 ARE inh
Cc1ccc(/C=N\NC(=O)CN2CCN(S(=O)(=O)c3ccc(Br)cc3)CC2)s1,-4.9,nt,nt,nt,nt,nt,nt,nt,nt
O=C(C1CC1)N1CCc2cc(Br)c(S(=O)(=O)NCCCN3CCCCC3)cc21,3.1,nt,nt,nt,nt,nt,nt,nt,nt
COc1cc2c(c(OC)c1)[C@H](/C=C/c1ccccc1)[C@@H]([C@H](O)CO)OC2,0.4,nt,nt,nt,nt,nt,nt,nt,nt
Cc1cc(C)c(NC(=O)CSc2ncc3c(n2)-c2cc(Cl)ccc2N(C)S3(=O)=O)c(C)c1,0.9,-18.2%,27.4%,nt,-1.2%,4.61µM*,3.5%,-19.1%,30.1%
Cc1ccccc1Cn1cc(CN2[C@@H](CC(C)C)COc3cc(Br)ccc3S2(=O)=O)nn1,2.0,nt,nt,nt,nt,nt,nt,nt,nt
C=C1CCN(C(C(=O)O)C(C)C)S(=O)(=O)c2ccccc21 (stereo unspecified),nt,-4.6%,nt,nt,nt,-10.0%,nt,nt,nt
COC(=O)c1[nH]c2c(c1C)C(=O)CC(c1cc(OC)c(OC)c(OC)c1)C2 (stereo unspecified),-4.8,0.0%,19.7%,-0.4%,3.3%,9.2µM*,4.1%,-6.5%,?
COc1cc(C2CC(=O)c3c([nH]c(C(=O)OC4CCCC4)c3C)C2)cc(OC)c1OC (stereo unspecified),-1.8,?,?,nt,-1.7%,5.8µM*,-15.5%,?,11.6µM*
COC(=O)c1[nH]c2c(c1C)C(=O)CC(c1ccc(OC)c(OC)c1)C2 (stereo unspecified),-8.0,-4.4%,-2.5%,-1.5%,-0.4%,?,nt,nt,nt
Cc1ccc(-n2c(SCC(=O)N/N=C/C=C\c3ccco3)nnc2-c2ccccc2)cc1,-7.0,nt,nt,nt,nt,nt,nt,nt,nt
CCN1/C(=C/c2ccc3cccc(C)c3[n+]2CC)Sc2ccccc21,-0.9,?,-8.5%,-4.5%,-1.4%,2.59µM*,0.3%,?,2.06µM*
CCN1/C(=C/c2ccc3cc(C)cc(C)c3[n+]2CC)Sc2cc(C)ccc21,-11.3,16.4µM*,?,0.1%,0.4%,?,-11.4%,?,1.64µM*
CC[n+]1c(/C=C/c2cc([N+](=O)[O-])ccc2O)ccc2ccccc21,1.1,-16.9%,-6.7%,6.0%,28.9%,?,nt,nt,nt
CCN1/C(=C\c2ccc3cc(C)ccc3[n+]2CC)Sc2cc(C)c(C)cc21,0.1,?,nt,-1.0%,-0.9%,8.2µM*,-6.6%,?,1.84µM*
C#CCNC(=O)C[C@H]1C[C@@]2(C(=O)OC)C(=C[C@H](C3CCCC3)O[C@@H]2C)N(CCC2=CCCCC2)C1=O,-3.6,nt,nt,nt,nt,nt,nt,nt,nt

# Quoted at random: two compounds from above, in no set order.
SMILES,PI4K2A inh,A549 tox-1,miR-21 reporter,GALK inhibitor,Nrf2 activator,Nrf2 block,FLuc counter 3,A549 tox-2,Nrf2 ARE inh
Cc1ccc(-n2c(SCC(=O)N/N=C/C=C\c3ccco3)nnc2-c2ccccc2)cc1,-7.0,nt,nt,nt,nt,nt,nt,nt,nt
COC(=O)c1[nH]c2c(c1C)C(=O)CC(c1cc(OC)c(OC)c(OC)c1)C2 (stereo unspecified),-4.8,0.0%,19.7%,-0.4%,3.3%,9.2µM*,4.1%,-6.5%,?

# Following part.
SMILES,PI4K2A inh,A549 tox-1,miR-21 reporter,GALK inhibitor,Nrf2 activator,Nrf2 block,FLuc counter 3,A549 tox-2,Nrf2 ARE inh
CCCC[C@H](C(=O)N(C)c1ccccc1)[C@@H](O)c1ccc(Cl)cc1,-0.8,nt,nt,nt,nt,nt,nt,nt,nt
Cc1ccc(S(=O)(=O)N2C[C@@H]3CCCC[C@@H]3[C@@H](C)[C@H]2c2cn(Cc3ccccc3)c3ncccc23)cc1,4.4,-11.1%,nt,nt,-0.2%,5.17µM*,3.1%,-12.9%,5.17µM*
Cc1ccc(S(=O)(=O)N2C[C@@H]3CCCC[C@@H]3[C@@H](C)[C@H]2c2cn(Cc3ccccc3)c3ccccc23)cc1,-4.3,-1.4%,nt,nt,-0.5%,1.84µM*,2.5%,-15.8%,2.91µM*
CCN(Cc1cccs1)c1ncnc2ccc(-c3ccc4c(c3)OCO4)cc12,-12.0,0.8%,nt,nt,nt,-29.6%,nt,nt,nt

# A few values from the results shown.
# `Cc1ccc(S(=O)(=O)N2C[C@@H]3CCCC[C@@H]3[C@@H](C)[C@H]2c2cn(Cc3ccccc3)c3ncccc23)cc1` in FLuc counter 3 shows 3.1%
# `Cc1ccc(/C=N\NC(=O)CN2CCN(S(=O)(=O)c3ccc(Br)cc3)CC2)s1` in PI4K2A inh shows -4.9
# `CCN1/C(=C/c2ccc3cc(C)cc(C)c3[n+]2CC)Sc2cc(C)ccc21` in Nrf2 ARE inh shows 1.64µM*
# `CCN1/C(=C/c2ccc3cccc(C)c3[n+]2CC)Sc2ccccc21` in miR-21 reporter shows -8.5%
